## Antibody variant affinities, Ab-14 light chain, assay B

The target is the same throughout: PDVDLGDISGINAS, from the HR2 region of SARS-CoV-2 spike.

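These sequences belong to a second round, designed from the earlier measurements on random variants of the parent. Several design methods are mixed in this list. AlphaSeq pools MATa yeast showing the antibodies with MATalpha yeast showing the peptide. Binding brings cells together so that they mate, and sequencing counts the barcode pairs among the diploids. Read counts were normalised to the haploid input and turned into Kd by a linear fit to BCL2-family pairs of known affinity, for each replicate. The assay was run in six technical replicates.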

Parent: Ab-14, a human scFv built as VH, three GGGGS repeats, VL. Only the CDRs of the light chain vary.
VH: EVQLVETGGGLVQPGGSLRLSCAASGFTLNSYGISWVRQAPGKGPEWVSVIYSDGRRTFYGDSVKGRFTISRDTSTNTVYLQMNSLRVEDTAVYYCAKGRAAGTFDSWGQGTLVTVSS
VL: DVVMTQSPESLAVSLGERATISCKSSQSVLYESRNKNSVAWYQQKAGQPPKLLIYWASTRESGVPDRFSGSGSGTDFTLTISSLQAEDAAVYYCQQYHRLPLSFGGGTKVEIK

Each variant is given by its three light chain CDRs, as the data file delimits them; those of the parent are KSSQSVLYESRNKNSVA, WASTRES, QQYHRLPLS. Variants here have more than six changes. The Kd shown is the geometric mean over detected replicates; a lower Kd is a better binder. Order: sorted from the lowest average up. The range of this assay differs from that of the first round, and the authors advise against merging the two. Three control strains display no target. For all light chain designs, 4% of the pairings with them gave a signal, with a median of 430 nM and one signal in twenty below 38 nM, so weak values seen in few replicates may be background. For each scFv, signals with the empty controls are counted beside the result. The authors averaged sequences with at least three values out of six and counted those with two or fewer as poor binders. Of ten entries with the parent sequence, four were seen in most replicates (averages 2.2 nM to 240 nM), three in one and three in none, so single entries are noisy.

KLSFLGNYEQRNKNSVA / SASTRCS / QQYHRLPLS: 430 pM (6 of 6 replicates; controls 3 of 18).
KMSQAVPYESRNLNNVA / DGSTRES / QQYHRLPLS: 540 pM (6 of 6 replicates; controls 0 of 18).
KVQASQEYWSRNKNSVA / QASTRET / QQYHRLPLS: 810 pM (6 of 6 replicates; controls 0 of 18).
KLSQSWMQQWRNKNSVA / NASTRLS / QQYHRLPLS: 1.0 nM (6 of 6 replicates; controls 0 of 18).
KLMQEMLYESRADNSVA / NASQREE / QQYHRLPLS: 1.1 nM (6 of 6 replicates; controls 2 of 18).
HISMMVGTKGQAKNSVA / NEETRYD / QQYHRLPLS: 1.4 nM (6 of 6 replicates; controls 0 of 18).
KLGQMTGIESHNKNSLA / DANRREN / QQYHRLPLS: 1.7 nM (6 of 6 replicates; controls 1 of 18).
MIEIIHDGYDEMRSAIA / DTSLVRM / QQYYRLPLM: 2.1 nM (1 of 6 replicates; controls 0 of 18).
KLSQSWEYLSRNSNAVA / NASQRLQ / QQYHRLPLS: 2.1 nM (6 of 6 replicates; controls 1 of 18).
TVSQVHGMLTHNKNSVA / DMNTRGS / QQYDRLPLS: 2.3 nM (6 of 6 replicates; controls 0 of 18).
HITYGMMIAGRHSKSIA / QAEERAK / QQYDRLPLS: 2.5 nM (6 of 6 replicates; controls 1 of 18).
IISQSMIYESATHNSIA / QTSTREE / QQYHHLPLS: 2.8 nM (6 of 6 replicates; controls 0 of 18).
KLQQSQLYESRNKNSVA / DASQRLV / QAYHRLPLS: 3.2 nM (6 of 6 replicates; controls 1 of 18).
KLQWYNTEASYSAFNIA / DGAQRLN / QQYMRLPLM: 3.3 nM (6 of 6 replicates; controls 0 of 18).
KIGMTLNQLEHKQNNVA / DLVTREN / QQYHRLPLS: 3.9 nM (6 of 6 replicates; controls 5 of 18).
TVSQVHGMLSHNKNSVA / DMNTRGQ / QQYDRLPLS: 3.9 nM (6 of 6 replicates; controls 0 of 18).
KLSQSTLYEMRNTNSVA / QASTRLQ / QQYHRLPLS: 4.4 nM (6 of 6 replicates; controls 3 of 18).
KIAEQIMHVYIGANAIA / DATVKSA / QQYLRLPLM: 4.5 nM (6 of 6 replicates; controls 1 of 18).
KIGMTLNQMMHKKNNVA / DLVTREN / QQYHRLPLS: 4.7 nM (6 of 6 replicates; controls 1 of 18).
KVQMSNLYESRMHNSVA / DASVRES / QQYHRLPLS: 5.0 nM (6 of 6 replicates; controls 1 of 18).
KLGQMTAIESRNLNSVA / QMDTREK / QQYDRLPLS: 5.2 nM (6 of 6 replicates; controls 0 of 18).
MISDLTYIGLRNVNSVA / DLSTRGN / QQYDRLPLS: 5.6 nM (6 of 6 replicates; controls 1 of 18).
MMSQVTGMELRQQNNVA / QTSTRES / QQYDRLPLI: 6.0 nM (6 of 6 replicates; controls 2 of 18).
QLMEEQSMRTEAQRNIA / QGEQKVH / QQYFRLPLA: 7.1 nM (6 of 6 replicates; controls 0 of 18).
KISGLYNFAQTNKNSIA / EMTTRTS / QHYHRLPLS: 8.9 nM (6 of 6 replicates; controls 1 of 18).
TISQVMNTLTRLGNNVA / DLAERED / QQYFRLPLS: 10 nM (6 of 6 replicates; controls 0 of 18).
SLQDMEREMNSHEQAIA / DGTESAR / QQYFQLPLH: 10 nM (6 of 6 replicates; controls 2 of 18).
RVQINSGHSDMHWYSIA / SASIRAD / QQYERLPLA: 12 nM (6 of 6 replicates; controls 2 of 18).
KLSQVTHSEHRLKNSIA / EMVTREK / QQYDRLPLS: 13 nM (5 of 6 replicates; controls 1 of 18).
KLSQQHLYESRNKNSVA / NASLRLS / QCYHRLPLS: 15 nM (6 of 6 replicates; controls 1 of 18).
KLRQSTHIESFNKNNVA / EMTNRES / QSYDRLPLS: 16 nM (6 of 6 replicates; controls 1 of 18).
KFSQWTFSQNRDDNSIA / HADEVVR / QQYDRFPLT: 22 nM (4 of 6 replicates; controls 0 of 18).
MLSQMWALGMKVSNSVA / QASTRFE / QQYERLPFI: 26 nM (5 of 6 replicates; controls 0 of 18).
SLTAHHEEAKRAENSVA / EAVMLES / QQYHQLPLM: 29 nM (5 of 6 replicates; controls 0 of 18).
HLLYAFNTGSLRDNNVA / EGETVLD / QQYFRLPIT: 30 nM (3 of 6 replicates; controls 0 of 18).
SMQFYTENFAEWGQNIA / DVSATTA / QQYHRLPLA: 60 nM (5 of 6 replicates; controls 2 of 18).
HITYGMMVAGRHHSSIA / QAENRAK / QQYDRLPLA: 65 nM (6 of 6 replicates; controls 0 of 18).
MLSDLNKMGVRNTSSVA / DNSTRGS / QQYDRLPLS: 260 nM (6 of 6 replicates; controls 1 of 18).

Extract of 4 entries:

Variant KLSQSTLYEMRNTNSVA / QASTRLQ / QQYHRLPLS gave 4.4 nM (6 of 6 replicates; controls 3 of 18).
Variant QLMEEQSMRTEAQRNIA / QGEQKVH / QQYFRLPLA gave 7.1 nM (6 of 6 replicates; controls 0 of 18).
Variant KLQWYNTEASYSAFNIA / DGAQRLN / QQYMRLPLM gave 3.3 nM (6 of 6 replicates; controls 0 of 18).
Variant HITYGMMIAGRHSKSIA / QAEERAK / QQYDRLPLS gave 2.5 nM (6 of 6 replicates; controls 1 of 18).

The measurements come from Li et al. 2023 (doi:10.1038/s41467-023-39022-2) through the FLAb antibody collection.